Test results as given in patent US7109225B2, “Substituted oxazole derivatives” (Hofmann-la Roche Inc., priority 2002, dated 2006).

Tests used:
PPARα [1] = molecular target: T1, PPARα (Homo sapiens, UniProt Q07869); assay: Radioligand binding assay, GST-PPARα-LBD fusion protein; set-up: PPARα (aa 167 to 469)
T1 sequence (Q07869 167-468 limits assumed): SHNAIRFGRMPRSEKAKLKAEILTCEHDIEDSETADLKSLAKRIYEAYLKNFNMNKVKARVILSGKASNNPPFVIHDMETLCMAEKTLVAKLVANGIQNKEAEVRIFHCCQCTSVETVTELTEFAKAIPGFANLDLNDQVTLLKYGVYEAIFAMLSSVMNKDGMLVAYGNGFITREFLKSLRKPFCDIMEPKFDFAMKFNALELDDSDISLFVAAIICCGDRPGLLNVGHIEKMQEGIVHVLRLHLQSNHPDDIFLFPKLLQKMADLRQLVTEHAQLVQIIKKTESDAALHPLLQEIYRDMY
From the text: (§1) Full-length cDNA clones for human PPARα and mouse PPARγ were obtained by RT-PCR from human adipose and mouse liver cRNA, respectively, cloned into plasmid vectors and verified by DNA sequencing. […] To accomplish this, the portions of the cloned sequences encoding the LBDs were amplified from the full-length clones by PCR and then subcloned into the plasmid vectors. Final clones were verified by DNA sequence analysis.
Induction, expression, and purification of GST-LBD fusion proteins were performed in E. coli strain BL21 (pLysS) cells by standard methods (Ref: Current Protocols in Molecular Biology, Wiley Press, edited by Ausubel et al.).
Radioligand Binding Assay
PPARα receptor binding was assayed in TKE10 (10 mM Tris-HCl, pH 8, 50 mM KCl, 2 mM EDTA, 0.1 mg/ml fatty acid free BSA and 10 mM DTT). […]
PPARγ receptor binding was assayed in TKE50 (50 mM Tris-HCl, pH 8, 50 mM KCl, 2 mM EDTA, 0.1 mg/ml fatty acid-free BSA and 10 mM DTT). […] All binding assays were performed in 96 well plates and the amount of bound ligand measured on a Packard TopCount using OptiPlates (Packard). Nonspecific binding was determined in the presence of 10^−4 M unlabelled compound. […]

PPARα [2] = molecular target: T1, PPARα; assay: Luciferase transcriptional reporter gene assay, BHK21 cells transfected with pFA-PPARα-LBD; assay type: cell-based; set-up: PPARα (aa 167 to 469); expressed in transfected cells; host or cells: BHK21 (ATCC CCL10); conditions: Gal4-PPARα-LBD
From the text: as §1
Luciferase Transcriptional Reporter Gene Assays
Baby hamster kidney cells (BHK21 ATCC CCL10) were grown in DMEM medium containing 10% FBS at 37° C. in a 95%02:5%CO2 atmosphere. […] Following incubation of the cells for 24 hours with substances, 50 ul of the supernatant was recovered and analyzed for SEAP activity (Roche Molecular Biochemicals). […] Luminescence for both SEAP and luciferase was measured in a Packard TopCount. Luciferase activity was normalized to the SEAP control and transcriptional activation in the presence of a test substance was expressed as fold-activation over cells incubated in the absence of the substance. EC50 values were calculated using the XLfit program (ID Business Solutions Ltd. UK).

PPARα IC50 (PPARα [1]): inactive
PPARα EC50 (PPARα [2]): inactive
Structure (SMILES): CN(CCOc1ccc(CC2SC(=O)NC2=O)cc1)c1ccccn1 (centres unmarked) [Rosiglitazone, reference compound]
